# In paper PMC3669296, “Pulsed Electromagnetic Fields Increased the Anti-Inflammatory Effect of A2A and A3 Adenosine Receptors in Human T/C-28a2 Chondrocytes and hFOB 1.19 Osteoblasts” (PLoS ONE, 2013):
# Sequences of proteins named here, by UniProt entry; tags and fusion partners are left off.
# UniProt P0DMS8, whole entry: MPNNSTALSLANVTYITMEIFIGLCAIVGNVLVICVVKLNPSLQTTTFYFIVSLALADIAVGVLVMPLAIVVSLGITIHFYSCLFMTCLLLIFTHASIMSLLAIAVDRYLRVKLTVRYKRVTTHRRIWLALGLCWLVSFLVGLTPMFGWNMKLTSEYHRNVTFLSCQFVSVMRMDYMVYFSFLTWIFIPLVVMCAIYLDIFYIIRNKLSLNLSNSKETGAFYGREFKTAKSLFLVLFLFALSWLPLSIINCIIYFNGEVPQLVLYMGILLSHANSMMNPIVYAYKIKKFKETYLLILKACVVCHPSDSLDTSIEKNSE
# Molecular target: T1, A3AR (Homo sapiens, UniProt P0DMS8)
# T1 construct: gene ADORA3; native full-length receptor in membranes of human T/C-28a2 chondrocytes
# Assay: radioligand saturation binding, cell membranes
# Details: labelled compound, T/C-28a2 membranes, no PEMF, no IL-1β, Tris-HCl […], MgCl2 […], EDTA […], pH […] min, read-out: A3ARs / KD
# Source text: radioligand saturation binding, cell membranes on A3AR
smiles,measurement,value
"CCCn1cc2c(nc(NC(=O)Nc3ccc(OC)cc3)n3nc(-c4ccco4)nc23)n1 [[3H]-MRE 3008F20, 5N-(4-methoxyphenylcarbamoyl) amino-8-propyl-2-(2-furyl) pyrazolo [4,3-e]-1,2,4-triazolo [1,5-c]pyrimidine]",Kd,3.04 ± 0.28 nM
